Results from article PMC3923400.

biological target: Raf-Ras binding domain (agarose beads coated with it; Raf pull-down assay kit); experiment: pull-down

percent of total K-Ras that is active (caught on Raf) (% of total K-Ras)	Substance
9	K-Ras of Bxpc3 human pancreatic cancer cells (from UniProt P01116 1-189) (natural protein)
9	K-Ras of Mpanc96 human pancreatic cancer cells (from UniProt P01116 1-189) (natural protein)
9	K-Ras of Panc1 human pancreatic cancer cells (from UniProt P01116 1-189) (natural protein)
